The values below come from US20170233496A1 (NECTAGEN, published 2017).

The target in this experiment is beta-D-galactosidase; biotinylated (Rockland Chemical, B000-17) (Escherichia coli (strain K12), UniProt P00722 1-1024 = β-galactosidase). Nature of the experiment: affinity purification (IP) of Bgal from spiked E. coli lysate, SDS-PAGE, FIG. 9H.

Numbering of substitutions follows the chain as printed.

B1: PC896 (designed binder)
chain: MCSSHHHHHHNPSLIRSESWQVYEGNEANLLDGDDNTGVWYKKAKNLASLAGEFIGLDLGKEIKLDGIRFVIGKNGGGSSDKWNKFKLEYSLDNESWTTIKEYDKTGAPAGKDVIEESFETPISAKYIRLTNLESYFNFLTFSEFAIVSD
For the molecule B1, the binding result was “binds”.

B2: PC923 (designed binder)
chain: B1 chain with V22L, Y23I, K42F, A44D, K45W, N46H, L47T, N138E, F139Y
Turning to B2, the binding result is on record as “binds”.
